Source: patent US8518939B2, “6-pyrimidinyl-pyrimid-4-one derivative” (Mitsubishi Tanabe Pharma Corporation, priority 2007, dated 2013)

Test system: scopolamine-treated mice
Experiment: Object recognition test, 3 h inter-trial interval, scopolamine-induced episodic memory deficit
Details: scopolamine 1 mg/kg s.c. 30 minutes before acquisition, object explored 3 h before

CN1[C@@H]2C[C@@H](OC(=O)[C@H](CO)c3ccccc3)C[C@H]1[C@@H]1O[C@@H]12 [scopolamine]
effect on episodic memory: completely abolished episodic memory
